Literature values in patent publication EP1200114B1, “PPAR DELTA INHIBITORS FOR THE TREATMENT OF CARDIOVASCULAR DISEASES” (priority 1999, dated 2001).

Chains of the proteins cited; added tags and fusions are not shown. Lines headed by an entry give the natural chain unless they say otherwise; changes in a name come on top.
UniProt Q03181, whole entry: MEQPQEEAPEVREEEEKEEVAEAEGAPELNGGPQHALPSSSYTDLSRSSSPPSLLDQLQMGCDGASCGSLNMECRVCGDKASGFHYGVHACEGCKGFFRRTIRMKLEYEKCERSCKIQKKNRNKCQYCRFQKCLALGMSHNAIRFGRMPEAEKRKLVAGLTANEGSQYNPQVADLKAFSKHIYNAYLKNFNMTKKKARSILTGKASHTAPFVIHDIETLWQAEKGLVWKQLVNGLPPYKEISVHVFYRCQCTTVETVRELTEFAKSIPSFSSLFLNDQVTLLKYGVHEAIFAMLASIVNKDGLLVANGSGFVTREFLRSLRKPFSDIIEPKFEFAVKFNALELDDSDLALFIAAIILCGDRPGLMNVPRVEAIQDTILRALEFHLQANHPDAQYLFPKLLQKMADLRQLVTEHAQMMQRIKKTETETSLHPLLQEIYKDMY

Target: hPPARδ (Homo sapiens, UniProt Q03181)
Settings: radioactive ligand for PPARδ; cited from earlier work

Question: For `CCCc1c(OCCCSc2ccc(CC(=O)O)cc2Cl)ccc2c(C(F)(F)F)noc12`, which Kd is on record?
Answer: Its Kd is 1 nM.
